In ChEMBL document CHEMBL3352706, “Novel cyclic biphalin analogue with improved antinociceptive properties” (2014) one finds Emax and inhibition data, which are given here for five compounds.

Amino acid sequences for entries named in this document (tags omitted). A change or cut given only in a name is not applied to a line headed by its entry.
UniProt P34975: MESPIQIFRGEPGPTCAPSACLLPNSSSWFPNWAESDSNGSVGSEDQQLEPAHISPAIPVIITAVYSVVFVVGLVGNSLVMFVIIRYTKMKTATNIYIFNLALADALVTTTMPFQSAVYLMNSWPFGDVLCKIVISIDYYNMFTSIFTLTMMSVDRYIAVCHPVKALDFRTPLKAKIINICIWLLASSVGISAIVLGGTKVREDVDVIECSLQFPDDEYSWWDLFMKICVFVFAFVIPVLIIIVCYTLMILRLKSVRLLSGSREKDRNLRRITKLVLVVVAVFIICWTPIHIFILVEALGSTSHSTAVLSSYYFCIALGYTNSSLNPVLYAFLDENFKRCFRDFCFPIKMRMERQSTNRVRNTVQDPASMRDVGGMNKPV
UniProt P33535, whole entry, looked up: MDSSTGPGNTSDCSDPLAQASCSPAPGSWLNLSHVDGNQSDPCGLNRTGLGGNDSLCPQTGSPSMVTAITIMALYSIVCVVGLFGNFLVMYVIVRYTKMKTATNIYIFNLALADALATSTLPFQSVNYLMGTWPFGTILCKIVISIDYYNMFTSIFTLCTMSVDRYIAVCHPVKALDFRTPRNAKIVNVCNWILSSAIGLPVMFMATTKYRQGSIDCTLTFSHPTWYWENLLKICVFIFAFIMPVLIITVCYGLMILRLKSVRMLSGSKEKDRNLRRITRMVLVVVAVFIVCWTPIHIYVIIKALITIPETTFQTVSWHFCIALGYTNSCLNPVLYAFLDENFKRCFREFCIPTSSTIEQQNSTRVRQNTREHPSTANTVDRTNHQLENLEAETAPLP
UniProt P32300, whole entry, looked up: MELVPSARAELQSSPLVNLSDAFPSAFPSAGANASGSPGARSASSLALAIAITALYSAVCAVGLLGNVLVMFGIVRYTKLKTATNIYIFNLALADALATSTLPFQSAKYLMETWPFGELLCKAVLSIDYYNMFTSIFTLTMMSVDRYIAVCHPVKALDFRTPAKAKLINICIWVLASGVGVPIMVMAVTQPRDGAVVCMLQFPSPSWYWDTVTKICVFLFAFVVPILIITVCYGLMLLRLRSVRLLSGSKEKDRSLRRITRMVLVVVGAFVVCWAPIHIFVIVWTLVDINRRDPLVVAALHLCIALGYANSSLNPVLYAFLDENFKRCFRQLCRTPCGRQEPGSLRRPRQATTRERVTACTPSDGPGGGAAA
UniProt P97266, whole entry, looked up: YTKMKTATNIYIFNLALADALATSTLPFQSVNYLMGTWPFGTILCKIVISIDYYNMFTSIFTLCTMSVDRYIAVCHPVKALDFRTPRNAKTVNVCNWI

SMILES strings stand for the structures. The source made the active and inactive calls. The calls are words filed in the database; no cut-off is given here.

In experiment [1] the target is Kappa-type opioid receptor (Rattus norvegicus) (UniProt P34975). Nature of the experiment: Agonist activity at rat kappa opioid receptor expressed in CHO cells by [35S]GTPgammaS binding assay relative to untreated control. For orientation: Binding of GTPγS marks nucleotide exchange on a G protein.
For experiment [2], the system named is Mus musculus. Put plainly: Antinociceptive activity in CD1 mouse assessed as reduction in thermal nociception by at 1500 nmol, iv by hot plate test.
Experiment [3] concerns Mus musculus. Nature of the experiment: Antinociceptive activity in CD1 mouse assessed as reduction in thermal nociception by at 1500 nmol, iv by tail flick test. In general terms: Hot-plate and tail-flick tests time the reaction to a heat stimulus.
The target in experiment [4] is Mu-type opioid receptor (Rattus norvegicus) (UniProt P33535). Put plainly: Agonist activity at rat mu opioid receptor expressed in CHO cells by [35S]GTPgammaS binding assay relative to untreated control.
Experiment [5] concerns the target Delta-type opioid receptor (Mus musculus) (UniProt P32300). Nature of the experiment: Agonist activity at mouse delta opioid receptor expressed in CHO cells by [35S]GTPgammaS binding assay relative to untreated control.
Experiment [6] has the same target. Nature of the experiment: Agonist activity at delta opioid receptor in ICR mouse vas deferens assessed as inhibition of electrically-induced smooth muscle contraction at 1 mM.
Experiment [7] has as its target Mu-type opioid receptor (Cavia porcellus) (UniProt P97266). Nature of the experiment: Agonist activity at mu opioid receptor in Hartley guinea pig ileum longitudinal muscle myenteric plexus assessed as inhibition of electrically-induced smooth muscle contraction at 1 mM.
Experiment [8] concerns Mus musculus. Nature of the experiment: Antinociceptive activity in CD1 mouse assessed as reduction in thermal nociception by at 0.1 nmol, icv measured 15 mins post dose by hot plate test.
The subject of experiment [9] is Mus musculus. Nature of the experiment: Antinociceptive activity in CD1 mouse assessed as reduction in thermal nociception by measuring tail-flick latency at 0.1 nmol, icv measured 15 mins post dose by tail-flick assay.

Broadly, the Emax is the greatest response seen or fitted, relative to the assay's reference. What is called inhibition is the change of the read-out against control, counted positive when it falls.

In experiment [1], `CN(C(=O)Cc1ccccc1)[C@H]1CC[C@@]2(CCCO2)C[C@@H]1N1CCCC1` registered an Emax of 202%.

On to `CC1(C)SSC(C)(C)[C@@H](NC(=O)[C@@H](N)Cc2ccc(O)cc2)C(=O)NCC(=O)N[C@@H](Cc2ccccc2)C(=O)NNC(=O)[C@H](Cc2ccccc2)NC(=O)CNC(=O)[C@@H]1NC(=O)[C@@H](N)Cc1ccc(O)cc1`, for which the inhibition result in the experiment with Mus musculus [2] and with Mus musculus [3] was “Active” throughout. The Emax stood at 474% in experiment [4], 127% in [1] and 150% in experiment [5].

`CC[C@H](C)[C@H](NC(=O)[C@H](CCC(=O)O)NC(=O)[C@H](Cc1ccccc1)NC(=O)[C@H](C)NC(=O)[C@@H](N)Cc1ccc(O)cc1)C(=O)N[C@H](C(=O)NCC(=O)O)[C@@H](C)CC`: the Emax in [5] was 143%.

With `CC1(C)SSC(C)(C)[C@H](NC(=O)[C@@H](N)Cc2ccc(O)cc2)C(=O)NCC(=O)N[C@@H](Cc2ccccc2)C(=O)NNC(=O)[C@H](Cc2ccccc2)NC(=O)CNC(=O)[C@H]1NC(=O)[C@@H](N)Cc1ccc(O)cc1`, the Emax turned out to be 162% in [4], 124% in [1] and 143% in [5]. Moreover, the inhibition is 21% in experiment [6] and 4% in [7].

As for `C[C@@H](NC(=O)[C@@H](N)Cc1ccc(O)cc1)C(=O)NCC(=O)N[C@@H](Cc1ccccc1)C(=O)NNC(=O)[C@H](Cc1ccccc1)NC(=O)CNC(=O)[C@@H](C)NC(=O)[C@@H](N)Cc1ccc(O)cc1`, the Emax in experiment [4] stood at 178%; in experiment [1] it was 109%; in experiment [5], 220%. The inhibition result with Mus musculus [8] and in the experiment with Mus musculus [9] was “Active” each time.
